Measurements published in patent US20220204581A1, “MONOMERIC PEPTIDE MULTI-AGONIST […] THE GLP1 RECEPTOR AND NPY RECEPTORS” (SYRACUSE UNIVERSITY, published 2022).

Target: human NPY2-R (human) (UniProt P49146)

**Q.** PYY3-36 (ligand) was tested. Which EC50 Y2R did it give?
**A.** 16 nM
